Test results as given in ChEMBL document CHEMBL1122202, “Ultra-short-acting beta-adrenergic receptor blocking agents. 1. (Aryloxy)propanolamines containing esters in the nitrogen substituent” (J Med Chem, 1982).

The chains behind the UniProt entries cited, without tags or fusion partners.
UniProt B0FL73, whole entry: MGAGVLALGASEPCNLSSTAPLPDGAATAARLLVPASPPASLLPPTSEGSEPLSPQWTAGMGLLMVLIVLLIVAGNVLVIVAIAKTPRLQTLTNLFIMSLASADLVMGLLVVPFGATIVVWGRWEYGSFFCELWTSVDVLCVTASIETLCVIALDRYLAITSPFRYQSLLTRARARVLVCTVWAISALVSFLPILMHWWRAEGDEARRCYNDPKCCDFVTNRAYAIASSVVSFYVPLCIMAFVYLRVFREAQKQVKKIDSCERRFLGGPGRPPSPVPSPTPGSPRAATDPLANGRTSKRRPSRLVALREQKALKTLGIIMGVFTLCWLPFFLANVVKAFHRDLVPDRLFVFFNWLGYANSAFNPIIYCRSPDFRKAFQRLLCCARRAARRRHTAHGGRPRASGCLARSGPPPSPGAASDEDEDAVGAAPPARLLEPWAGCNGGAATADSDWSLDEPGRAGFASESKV

The compounds below were run against T1, Beta-1 adrenergic receptor (Cavia porcellus, UniProt B0FL73) (assay: In vitro ability to block beta-1 adrenergic receptor in guinea pig right atria.). Settings: read-out: pA2 (converted).

Row | SMILES | Kb [nM]
1 | CCOC(=O)CCNCC(O)COc1ccc(Cl)cc1 (stereo unspecified) | 398
2 | COC(=O)c1ccc(CNCC(O)COc2ccccc2C)cc1 (stereo unspecified) | 126
3 | CCOC(=O)CCNCC(O)COc1cccc(Cl)c1 (stereo unspecified) | 39.8
4 | CCOC(=O)CCCNCC(O)COc1ccccc1 (stereo unspecified) | 251
5 | CCOC(=O)CNCC(O)COc1ccccc1 (stereo unspecified) | 2000

The next lines start with the values.

Row | Kb [nM] | SMILES
6 | 79.4 | COC(=O)CCNCC(O)COc1cccc2ccccc12 (stereo unspecified)
7 | 50.1 | CCOC(=O)CCNCC(O)COc1ccccc1 (stereo unspecified)
8 | 39.8 | CCOC(=O)CCNCC(O)COc1ccccc1Cl (stereo unspecified)
9 | 631 | CCOC(=O)CNCC(O)COc1cccc2ccccc12 (stereo unspecified)
10 | 39.8 | CCOC(=O)CCCNCC(O)COc1ccccc1C (stereo unspecified)

The compounds below were run against T1, Beta-1 adrenergic receptor (assay: The compound was tested in vitro for its ability to block Beta-1 adrenergic receptor in guinea pig trachea). Settings: read-out: pA2 (converted).
Type: tissue-based

Row | SMILES | Kb [nM]
11 | COC(=O)c1ccc(CNCC(O)COc2ccccc2C)cc1 (stereo unspecified) | 200
